Assay results: US20220025050A1 (OSE IMMUNOTHERAPEUTICS, published 2022)

The chains behind the UniProt entries cited, without tags or fusion partners. Where a name states a change or a piece, a line headed by the entry shows the natural chain unless it says otherwise. Residues count along the entry.
UniProt Q15116, 25-167 limits assumed: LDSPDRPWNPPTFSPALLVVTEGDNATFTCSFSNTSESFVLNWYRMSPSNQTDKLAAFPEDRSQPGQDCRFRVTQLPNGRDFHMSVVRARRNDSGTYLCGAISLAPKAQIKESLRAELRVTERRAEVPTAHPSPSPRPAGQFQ

Biological target: T1, recombinant hPD1 (Sino Biologicals, reference 10377-H08H) (human, UniProt Q15116, in part)
T1 construct: also called Human recombinant PD-1 protein; PD1-His recombinant protein
Experiment: ELISA: hPD-1 immobilized, anti-human Fc peroxidase

EC50: 2.4 ng/mL
B1: Chimeric anti-PD1 fused on its heavy chain to Type II-protein B (4-1BBL) (other, not shown: small tags and cut ends)
heavy: QIQLVQSGPELKKPGETVKISCKASGYTFTHYGMNWVKQAPGKGLKWMGWINTNTGEPTYAEEFKGRFAFSLETSASAAFLQINNLKNEDTATYFCAKEREPGMDSWGQGTSVTVSSASTKGPSVFPLAPCSRSTSESTAALGCLVKDYFPEPVTVSWNSGALTSGVHTFPAVLQSSGLYSLSSVVTVPSSSLGTKTYTCNVDHKPSNTKVDKRVESKYGPPCPPCPAPEFLGGPSVFLFPPKPKDTLMISRTPEVTCVVVDVSQEDPEVQFNWYVDGVEVHNAKTKPREEQFNSTYRVVSVLTVLHQDWLNGKEYKCKVSNKGLPSSIEKTISKAKGQPREPQVYTLPPSQEEMTKNQVSLTCLVKGFYPSDIAVEWESNGQPENNYKTTPPVLDSDGSFFLYSRLTVDKSRWQEGNVFSCSVMHEALHNHYTQKSLSLSPGKREGPELSPDDPAGLLDLRQGMFAQLVAQNVLLIDGPLSWYSDPGLAGVSLTGGLSYKEDTKELVVAKAGVYYVFFQLELRRVVAGEGSGSVSLALHLQPLRSAAGAAALALTVDLPPASSEARNSAFGFQGRLLHLSAGQRLGVHLHTEARARHAWQLTQGATVLGLFRVTPEIPAGLPSPRSE
light: DVLLTQTPLSLPVSLGDQASISCRSSQNIVHANGNTYLEWYLQKPGQSPKLLIYKVSNRFSGVPDRFSGSGSGTDFTLKITRVEAEDLGVYYCFQGSHVPNTFGGGTKLEIKRTVAAPSVFIFPPSDEQLKSGTASVVCLLNNFYPREAKVQWKVDNALQSGNSQESVTEQDSKDSTYSLSSTLTLSKADYEKHKVYACEVTHQGLSSPVTKSFNRGEC
notes: Bifunctional molecule
